Data reported in patent US7279576B2 (Deciphera Pharmaceuticals, LLC, priority 2002, dated 2007).

Chains of the proteins cited; added tags and fusions are not shown.
UniProt P00519, whole entry: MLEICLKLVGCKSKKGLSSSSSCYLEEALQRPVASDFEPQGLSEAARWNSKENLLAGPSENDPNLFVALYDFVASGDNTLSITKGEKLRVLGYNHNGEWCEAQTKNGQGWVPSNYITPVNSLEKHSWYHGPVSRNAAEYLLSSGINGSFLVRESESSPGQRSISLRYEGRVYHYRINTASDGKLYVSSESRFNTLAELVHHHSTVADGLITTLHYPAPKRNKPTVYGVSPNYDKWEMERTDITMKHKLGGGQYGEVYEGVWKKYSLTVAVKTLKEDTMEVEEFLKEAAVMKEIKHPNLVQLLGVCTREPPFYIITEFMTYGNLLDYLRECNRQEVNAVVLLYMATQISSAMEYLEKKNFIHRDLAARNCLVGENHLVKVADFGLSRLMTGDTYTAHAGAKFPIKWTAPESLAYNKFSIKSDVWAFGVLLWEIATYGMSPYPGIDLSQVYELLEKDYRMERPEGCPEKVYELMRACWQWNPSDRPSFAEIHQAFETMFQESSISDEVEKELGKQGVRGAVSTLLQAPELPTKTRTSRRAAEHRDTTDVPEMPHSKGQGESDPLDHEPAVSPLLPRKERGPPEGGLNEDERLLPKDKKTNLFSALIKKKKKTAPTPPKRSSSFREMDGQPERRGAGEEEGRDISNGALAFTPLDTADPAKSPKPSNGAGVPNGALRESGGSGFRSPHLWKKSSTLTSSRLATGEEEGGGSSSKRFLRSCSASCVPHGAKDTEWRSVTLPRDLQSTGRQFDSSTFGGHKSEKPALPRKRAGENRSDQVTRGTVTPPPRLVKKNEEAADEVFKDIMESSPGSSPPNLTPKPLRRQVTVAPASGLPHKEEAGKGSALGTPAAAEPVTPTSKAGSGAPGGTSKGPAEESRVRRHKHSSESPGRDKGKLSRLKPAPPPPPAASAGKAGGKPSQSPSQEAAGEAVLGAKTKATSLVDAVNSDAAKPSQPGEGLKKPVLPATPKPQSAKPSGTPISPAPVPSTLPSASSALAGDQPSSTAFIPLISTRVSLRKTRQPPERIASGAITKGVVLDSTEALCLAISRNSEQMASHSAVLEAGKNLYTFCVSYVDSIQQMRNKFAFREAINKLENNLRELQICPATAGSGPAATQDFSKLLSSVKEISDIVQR

Target: nonphosphorylated Abl kinase (Homo sapiens, UniProt P00519)
Experiment: Abl kinase assay (continuous spectrophotometric, pyruvate kinase/lactate dehydrogenase coupled)
Conditions: reference inhibitors, ATP 0.5 mM, 30° C.

Cc1cc(Nc2ncc3cc(-c4c(Cl)cccc4Cl)c(=O)n(C)c3n2)ccc1F
IC50: 24 nM
